Source: paper doi:10.1101/2023.04.01.535208

Legend:
[1] = biological target: vasopressin type 2 receptor (V2R) (UniProt P30518)
[2] = biological target: vasopressin type 2 receptor (V2R) (UniProt P30518); remark: listed apart in the source
[3] = biological target: chimeric V2R harboring the carboxy-terminal tail of the β2-adrenergic receptor (V2β2AR)

Substance: arginine vasopressin (AVP) (peptide)
- potency of AVP for V2R-driven recruitment of Rluc-mGs to early endosomes (EbBRET with rGFP-Rab5), parental HEK293 cells, 45 minutes [1]: -8.37 LogEC50
- potency of AVP for V2R-driven recruitment of Rluc-mGs to early endosomes (EbBRET with rGFP-Rab5), Δβarr1/2 HEK293 cells, 45 minutes [1]: -8.34 LogEC50
- potency of AVP for V2R-driven recruitment of Rluc-mGs to the plasma membrane (EbBRET with rGFP-CAAX), parental HEK293 cells, 10 minutes [1]: -7.9 LogEC50
- potency of AVP for V2R-driven recruitment of Rluc-mGs to the plasma membrane (EbBRET with rGFP-CAAX), Δβarr1/2 HEK293 cells, 10 minutes [1]: -7.99 LogEC50
- potency of AVP for V2R-driven recruitment of Rluc-mGsq to early endosomes (EbBRET with rGFP-Rab5), parental HEK293 cells, 45 minutes [1]: -8.38 LogEC50
- potency of AVP for V2R-driven recruitment of Rluc-mGsq to early endosomes (EbBRET with rGFP-Rab5), Δβarr1/2 HEK293 cells, 45 minutes [1]: -8.32 LogEC50
- potency of AVP for V2R-driven recruitment of Rluc-mGsq to the plasma membrane (EbBRET with rGFP-CAAX), parental HEK293 cells, 10 minutes [1]: -7.81 LogEC50
- potency of AVP for V2R-driven recruitment of Rluc-mGsq to the plasma membrane (EbBRET with rGFP-CAAX), Δβarr1/2 HEK293 cells, 10 minutes [1]: -7.95 LogEC50
- potency of AVP for recruitment of Rluc-mGs to early endosomes (EbBRET with rGFP-Rab5), cells expressing V2R [2]: -8.65 LogEC50
- potency of AVP for recruitment of Rluc-mGs to the plasma membrane (EbBRET with rGFP-CAAX), cells expressing V2R [2]: -8.07 LogEC50
- potency of AVP for recruitment of Rluc-mGsq to early endosomes (EbBRET with rGFP-Rab5), cells expressing V2R [2]: -8.44 LogEC50
- potency of AVP for recruitment of Rluc-mGsq to the plasma membrane (EbBRET with rGFP-CAAX), cells expressing V2R [2]: -7.88 LogEC50
- transduction coefficient (operational model) of AVP for recruitment of Rluc-mGs to early endosomes, cells expressing V2R [2]: 8.63 Logτ/Ka
- transduction coefficient (operational model) of AVP for recruitment of Rluc-mGs to the plasma membrane, cells expressing V2R [2]: 7.98 Logτ/Ka
- transduction coefficient (operational model) of AVP for recruitment of Rluc-mGsq to early endosomes, cells expressing V2R [2]: 8.31 Logτ/Ka
- transduction coefficient (operational model) of AVP for recruitment of Rluc-mGsq to the plasma membrane, cells expressing V2R [2]: 7.9 Logτ/Ka
- potency of AVP for recruitment of Rluc-mGs to early endosomes (EbBRET with rGFP-Rab5), cells expressing V2β2AR [3]: -8.34 LogEC50
- potency of AVP for recruitment of Rluc-mGs to the plasma membrane (EbBRET with rGFP-CAAX), cells expressing V2β2AR [3]: -8.07 LogEC50
- transduction coefficient (operational model) of AVP for recruitment of Rluc-mGs to early endosomes, cells expressing V2β2AR [3]: 8.31 Logτ/Ka
